Experiments:
EZH2/SUZ/EED = EZH2/SUZ/EED (Homo sapiens, UniProt Q15910); test: Inhibitory effect on EZH2 by the MTase-Glo method (Test Example 1); type: biochemical; conditions: read-out: Test Example 1 WT EZH2 IC50, EZH2/SUZ/EED 6.25 nM, H3 peptide 10 μM, SAM 3 μM, 30° C. 3 h
[1] = system: H3K27Me3 methylation in Karpas-422 cells; test: H3K27Me3 cell method, inhibition of H3K27Me3 methylation (Test Example 2); type: cell-based, human; conditions: read-out: Test Example 2 H3K27Me3 inhibition (Karpas-422) IC50, 3 days incubation, HTRF signal
Karpas-422 cells = test: Anti-proliferation by Cell Titer-Glo method (Test Example 3); type: cell-based, human; conditions: read-out: Test Example 3 Karpas-422 cell anti-proliferation IC50, Cell-Titer Glo on the eleventh day
EZH1/SUZ/EED = EZH1/SUZ/EED (Homo sapiens, UniProt Q92800); test: Inhibitory effect on EZH1 by the MTase-Glo method (Test Example 1); type: biochemical; conditions: read-out: Test Example 1 WT EZH1 IC50, EZH1/SUZ/EED 25 nM, H3 peptide 10 μM, SAM 3 μM, 30° C. 3 h

Amino acid sequences for entries named in this document (tags omitted). Residues count along the entry.
UniProt Q15910, 2-746 limits assumed: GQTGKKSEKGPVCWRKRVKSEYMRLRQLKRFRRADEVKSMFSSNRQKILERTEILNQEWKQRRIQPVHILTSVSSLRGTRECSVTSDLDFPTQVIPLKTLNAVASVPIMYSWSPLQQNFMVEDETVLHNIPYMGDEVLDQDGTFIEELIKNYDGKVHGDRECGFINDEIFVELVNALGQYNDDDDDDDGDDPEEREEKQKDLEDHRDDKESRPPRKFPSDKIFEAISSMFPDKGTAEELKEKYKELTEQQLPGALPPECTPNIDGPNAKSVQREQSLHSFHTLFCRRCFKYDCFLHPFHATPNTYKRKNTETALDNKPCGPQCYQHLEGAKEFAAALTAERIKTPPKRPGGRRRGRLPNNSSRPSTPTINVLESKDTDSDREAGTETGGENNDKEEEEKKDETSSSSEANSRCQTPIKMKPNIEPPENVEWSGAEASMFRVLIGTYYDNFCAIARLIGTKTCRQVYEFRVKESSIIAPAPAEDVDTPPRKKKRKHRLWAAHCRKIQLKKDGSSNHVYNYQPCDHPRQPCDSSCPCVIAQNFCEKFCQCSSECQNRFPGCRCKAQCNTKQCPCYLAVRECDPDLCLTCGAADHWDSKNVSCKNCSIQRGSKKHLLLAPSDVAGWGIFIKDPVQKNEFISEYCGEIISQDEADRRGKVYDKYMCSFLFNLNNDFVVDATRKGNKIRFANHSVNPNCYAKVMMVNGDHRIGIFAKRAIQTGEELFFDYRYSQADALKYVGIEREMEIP
UniProt Q92800, 2-747 limits assumed: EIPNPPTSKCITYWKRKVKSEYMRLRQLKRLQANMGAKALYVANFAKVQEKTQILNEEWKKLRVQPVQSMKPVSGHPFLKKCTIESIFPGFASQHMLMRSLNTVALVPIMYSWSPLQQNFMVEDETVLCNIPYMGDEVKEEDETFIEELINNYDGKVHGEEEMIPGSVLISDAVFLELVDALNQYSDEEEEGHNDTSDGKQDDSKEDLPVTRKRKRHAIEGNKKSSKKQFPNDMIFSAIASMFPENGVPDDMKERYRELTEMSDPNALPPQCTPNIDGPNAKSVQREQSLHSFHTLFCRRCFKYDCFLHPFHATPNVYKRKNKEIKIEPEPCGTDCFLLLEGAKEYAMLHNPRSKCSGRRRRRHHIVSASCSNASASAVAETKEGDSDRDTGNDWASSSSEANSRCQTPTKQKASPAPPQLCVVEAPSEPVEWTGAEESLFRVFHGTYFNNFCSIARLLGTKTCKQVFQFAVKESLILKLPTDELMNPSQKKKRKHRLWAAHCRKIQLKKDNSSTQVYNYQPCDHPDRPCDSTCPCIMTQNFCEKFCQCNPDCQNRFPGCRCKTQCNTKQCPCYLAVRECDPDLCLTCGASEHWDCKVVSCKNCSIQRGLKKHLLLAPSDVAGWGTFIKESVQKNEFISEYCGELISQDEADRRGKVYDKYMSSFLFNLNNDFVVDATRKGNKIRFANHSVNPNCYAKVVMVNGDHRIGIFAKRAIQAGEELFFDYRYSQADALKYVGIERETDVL
UniProt O75530, 2-441 partner limits assumed: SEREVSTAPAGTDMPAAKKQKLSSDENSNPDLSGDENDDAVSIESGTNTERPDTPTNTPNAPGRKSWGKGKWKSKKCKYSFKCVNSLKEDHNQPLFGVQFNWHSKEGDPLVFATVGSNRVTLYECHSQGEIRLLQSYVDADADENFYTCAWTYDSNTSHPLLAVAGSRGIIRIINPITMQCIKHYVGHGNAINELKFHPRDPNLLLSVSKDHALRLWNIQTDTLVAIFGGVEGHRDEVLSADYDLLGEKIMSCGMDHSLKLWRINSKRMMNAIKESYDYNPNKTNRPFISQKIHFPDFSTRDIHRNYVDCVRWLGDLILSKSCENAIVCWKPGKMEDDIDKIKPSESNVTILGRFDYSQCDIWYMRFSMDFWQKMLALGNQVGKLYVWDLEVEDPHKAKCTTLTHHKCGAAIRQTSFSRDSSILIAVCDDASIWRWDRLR
UniProt Q15022, 2-739 partner limits assumed: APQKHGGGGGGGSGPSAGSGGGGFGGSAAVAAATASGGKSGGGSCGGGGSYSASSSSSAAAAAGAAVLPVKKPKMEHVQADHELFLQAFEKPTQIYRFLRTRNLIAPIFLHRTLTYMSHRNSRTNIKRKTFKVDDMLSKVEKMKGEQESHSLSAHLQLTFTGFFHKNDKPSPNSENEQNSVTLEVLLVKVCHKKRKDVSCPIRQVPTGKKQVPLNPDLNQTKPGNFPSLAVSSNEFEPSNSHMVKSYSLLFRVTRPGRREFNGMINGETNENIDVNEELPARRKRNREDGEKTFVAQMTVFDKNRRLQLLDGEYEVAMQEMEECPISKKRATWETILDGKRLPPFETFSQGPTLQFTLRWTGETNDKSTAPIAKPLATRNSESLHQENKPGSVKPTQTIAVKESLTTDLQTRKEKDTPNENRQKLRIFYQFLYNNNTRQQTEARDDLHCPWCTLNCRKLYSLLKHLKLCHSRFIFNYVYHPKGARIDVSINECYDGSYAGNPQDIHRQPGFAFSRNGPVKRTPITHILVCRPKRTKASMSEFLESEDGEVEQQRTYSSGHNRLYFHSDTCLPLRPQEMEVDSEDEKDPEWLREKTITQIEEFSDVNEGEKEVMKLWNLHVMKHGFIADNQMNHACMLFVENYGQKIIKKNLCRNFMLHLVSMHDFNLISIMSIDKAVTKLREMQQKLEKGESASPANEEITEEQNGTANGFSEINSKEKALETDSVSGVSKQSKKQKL

With `COc1cc(C)[nH]c(=O)c1CNC(=O)c1cc(Cl)c2c(c1C)O[C@@H]([C@H]1CC[C@@H](N(C)CCOCCF)CC1)CO2` the IC50 (EZH2/SUZ/EED) was 6.2 nM, the IC50 [1] was 39.4 nM and the IC50 (Karpas-422 cells) was 26.1 nM.

`CSc1cc(C)[nH]c(=O)c1CNC(=O)c1cc(Cl)c2c(c1C)O[C@@H](C1CCN(CC3CC3)CC1)CO2` showed an IC50 (EZH2/SUZ/EED) of 3.3 nM, an IC50 (EZH1/SUZ/EED) of 17.9 nM and an IC50 [1] of 23.3 nM.

Reference: patent publication US20260184697A1, “EZH1/2 INHIBITOR, PREPARATION THEREOF, AND USE THEREOF IN ANTI-TUMOR THERAPY” (JIANGSU TASLY DIYI PHARMACEUTICAL CO., LTD., priority 2022, published 2026)
